{"sequences": {"note": "Protein sequences, listed by entry. Tags and fused reporters are not part of them.", "UniProt P48048, whole entry": "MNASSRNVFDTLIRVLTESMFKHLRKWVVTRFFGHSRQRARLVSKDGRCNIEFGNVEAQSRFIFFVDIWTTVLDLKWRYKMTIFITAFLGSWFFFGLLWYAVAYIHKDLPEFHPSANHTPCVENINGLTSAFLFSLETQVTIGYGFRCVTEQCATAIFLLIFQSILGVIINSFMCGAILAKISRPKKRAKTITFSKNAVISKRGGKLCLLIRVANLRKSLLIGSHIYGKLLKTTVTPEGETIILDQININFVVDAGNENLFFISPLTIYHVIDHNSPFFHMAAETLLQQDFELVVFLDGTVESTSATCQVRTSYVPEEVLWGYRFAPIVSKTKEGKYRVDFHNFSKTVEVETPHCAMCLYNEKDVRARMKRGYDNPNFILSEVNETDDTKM"}, "source": "patent US20170275302A1", "about": "“INHIBITORS OF THE RENAL OUTER MEDULLARY POTASSIUM CHANNEL” (Merck Sharp & Dohme Corp., priority 2014, published 2017)", "molecular_target": "hROMK (hKir1.1) (Homo sapiens, UniProt P48048)", "experiment": "Thallium Flux Assay (ROMK channel functional thallium flux assay, FLIPR-Tetra)", "conditions": "HEK293 cells stably expressing hROMK (hKir1.1); FluxOR thallium flux, 30 min compound incubation; concentration inhibiting 50% of ROMK thallium flux signal"}
{"smiles": "Cc1c([C@@H](O)CN2CCC3(CC2)CCN(c2ccc4c(c2)C[C@@H](C)OC4=O)C3)ccc2c1COC2=O", "values": [{"measurement": "IC50", "result": 93, "unit": "nM"}]}
